Experimental data from ChEMBL document CHEMBL1136550, “Discovery of orally bioavailable NK1 receptor antagonists” (Bioorg Med Chem Lett, 2003).

Chains of the proteins cited; added tags and fusions are not shown.
UniProt P25103, whole entry: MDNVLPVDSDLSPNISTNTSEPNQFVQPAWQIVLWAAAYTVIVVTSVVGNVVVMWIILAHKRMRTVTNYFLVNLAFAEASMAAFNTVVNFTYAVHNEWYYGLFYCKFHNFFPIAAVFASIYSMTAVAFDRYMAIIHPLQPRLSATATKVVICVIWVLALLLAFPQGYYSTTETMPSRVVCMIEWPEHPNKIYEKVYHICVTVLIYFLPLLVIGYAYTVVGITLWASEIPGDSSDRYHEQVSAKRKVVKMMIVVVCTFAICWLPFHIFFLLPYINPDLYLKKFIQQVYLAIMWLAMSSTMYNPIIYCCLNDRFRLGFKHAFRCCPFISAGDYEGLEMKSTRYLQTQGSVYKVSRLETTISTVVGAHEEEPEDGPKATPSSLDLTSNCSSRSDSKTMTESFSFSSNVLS

Molecular target: Substance-P receptor (Homo sapiens, UniProt P25103)
Assay: Displacement of [3H]-substance P from human NK1 receptor expressed in CHO cells
Assay type: cell-based

- Ki: 1.26 nM
Structure (SMILES): C[C@H](OC[C@H](c1ccccc1)N1CCN(CCOCC(=O)O)CC1)c1cc(C(F)(F)F)cc(C(F)(F)F)c1
